Antibody variant affinities, Ab-14 heavy chain, assay B

All variants were tested on one target, the spike HR2 peptide PDVDLGDISGINAS (SARS-CoV-2).

Parent: Ab-14, a human scFv built as VH, a 15-residue (Gly4Ser)3 linker, VL. Only the CDRs of the heavy chain vary.
VH: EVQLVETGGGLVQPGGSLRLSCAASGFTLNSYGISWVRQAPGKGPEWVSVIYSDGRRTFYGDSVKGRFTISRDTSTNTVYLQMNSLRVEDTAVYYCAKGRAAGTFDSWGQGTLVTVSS
VL: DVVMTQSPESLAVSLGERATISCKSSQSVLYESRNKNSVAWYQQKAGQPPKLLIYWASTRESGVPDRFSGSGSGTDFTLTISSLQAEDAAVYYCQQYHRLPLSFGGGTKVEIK

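The variants were designed computationally from a first round of random CDR variants and then made and measured. Group labels follow the data file (Ctrl: baseline library sampled from a position-specific scoring matrix, with some repeated check sequences; Rand: our label for a block that the file lists under HC and that is probably the random mutants of the ten best first-round binders; En: ensemble of fine-tuned language models; GP: Gaussian process model; GPLM: also part of the Gaussian process libraries; HC: hill climbing; Gen: genetic algorithm; Gibbs: Gibbs sampling; a sequence that several methods proposed may carry one label only). In AlphaSeq, yeast of one mating type display the scFv and yeast of the other type display the target. Mating (16 h, 30 °C) was followed by selection of diploids and sequencing of their barcodes. Read counts were normalised to the haploid input and turned into Kd by a linear fit to BCL2-family pairs of known affinity, for each replicate. The assay was run in six technical replicates.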

The parent's heavy chain CDRs are GFTLNSYGIS, VIYSDGRRTFYGDSVK, GRAAGTFDS; each variant's own CDRs replace them letter for letter.
Numbers give log10(Kd / nM), so 0 is 1 nM and 3 is 1 µM. Smaller is tighter.
The mean shown is taken over the replicates in which the pair was detected.
A pair that was not seen in any replicate is written "no signal"; this usually means weak binding, but a binder can also be missed.
Some sequences occur more than once in the pool; their replicates are pooled.

CDR-H1	CDR-H2	CDR-H3	group	log10 Kd (nM), mean	seen in
GFTLMSYGIN	VIYCDGRRTFYGDSVK	LRAAGTALS	Rand	no signal	0 of 6
GFTLNSYGIS	VIYSDGIRTFYGDSVK	GQHAGTFDS	Ctrl	1.21	2 of 6
GFTLNSYGIS	VIYSDGRRTFYKDSVK	GRAAGTKDS	Ctrl	no signal	0 of 6
GFSLNSYGIS	VIYSDGRRTFYGDSVK	GMEAGTFDK	GP_Gibbs	0.07	6 of 6
GFDLNEYGIS	VIYADGMRTTYTDSVK	GNEAGTFDS	En_HC	0.14	6 of 6
GFTLLDYGIS	VIYSDGRRTFYEDSVK	GRAAGTFDS	Ctrl	no signal	0 of 6
GFNLNEYGIS	VIYSDGRRTFYGDSVK	GRAAGAFDG	Ctrl	no signal	0 of 6
GFDIDEYGIS	VIYADGMRTFYADSVK	GEAAGTFDA	En_HC	-0.25	6 of 6
GFNLDEYGIS	VIYADGMRTFYSDSVK	GEAAGTFDV	En_HC	-0.38	6 of 6
GFTLNQYGIS	VIYSDGRRTFYADSVK	GRAAGTFDT	GP_HC	-0.04	6 of 6
GFTLNDYGIS	VIYSDGRRTMYGDSVK	GRAAGTFTS	GP_HC	no signal	0 of 6
GFDLNEYGIS	VIYADGLRTAYSDSVK	GENAGTFDV	En_Gen	0.25	6 of 6
GFTINSYGIS	VIYSDGRRTFYGDSVK	GYAAGTWDS	Ctrl	no signal	0 of 6
GFNLDEYGIS	VIYADGKRTFYSDSVK	GEVAGTFDI	En_HC	-0.53	6 of 6
KFSLNSYGIS	VIYSDGRRTFYADSVK	GNAAGTFDS	GPLM_Gen	1.41	6 of 6
GFSLNSYGIS	VIYSDGRRTFYGDSVK	GSAAGTFDL	GPLM_Gen	0.58	5 of 6
GFDIGEYGIS	VIYADGRRKAYSDAVK	GIHVYGKTV	En_Gibbs	no signal	0 of 6
GFTLNEYGIS	VIYSDGRRTFYTDSVK	GVAAGTFDS	GP_HC	-0.22	6 of 6
GFDLNEYGIS	VIYADGMRTVYADSVK	GENAGTFDQ	En_Gen	-0.35	6 of 6
GFDLNEYGIS	VIYADGSRTAYADDVK	GENAGTFDL	En_Gen	-0.15	6 of 6
GFDLNEYGIS	VIYADGRRTSYIDSVK	GEAAGTFDV	En_HC	-0.61	6 of 6
GETLKSYGIS	VIYSDGRRTSYDDSVK	GRAAGTFDS	Ctrl	0.42	6 of 6
GFNLNSYGIS	VIYSDGRRTFYGDSVK	GSAAGTFDS	Ctrl+GPLM_HC	0.77	12 of 12
GFDLNEYGIS	VIYADGRRTFYSDSVK	GTFAGTFDV	En_HC	-0.76	6 of 6
GFDLNEYGIS	VIYADGVRTSYADSVK	GQLAGTFDQ	En_HC	-0.26	6 of 6
GFELNNYGIS	VIYSDGRRTFYGDSVK	GRQAGTFDS	GP_Gen	0.65	6 of 6
GFDLDEYGIS	VIYADGVRTAYADSVK	GETAGTFDL	En_Gen	0.04	6 of 6
GFDLNEYGIS	VIYADGRRKFYADNVK	GENAGTFDV	En_HC	0.74	5 of 6
GFTLNSYGIS	VISSDGRRTFYGDSVK	GRAAGTFDS	Ctrl	2.50	1 of 6
GFDLEEYGIS	VIYADGMRTQYINAVK	GIIGDNLDL	En_Gibbs	no signal	0 of 6
GFDLDEYGIS	VIYADGRRTFYADSVK	GEAAGTFDQ	En_HC	-0.56	6 of 6
KFTLNSYGIS	VIYSDGRRTFYSDSVK	GEAGGTFDS	GP_HC	1.69	5 of 6
GFTLNDYGIS	VIYSDGRRTFYQDSVK	GRTAGTFDS	GPLM_Gen	1.46	6 of 6
GFDLNEYGIS	VIYADGKRTAYADDVK	GENAGTFDT	En_Gen	-0.15	6 of 6
SFDLNSYGIS	VIYSDGRRTAYGDSVK	GRQAGTFDS	GP_Gen	0.63	6 of 6
GFELNEYGIS	VIYSDGRRTFYIDSVK	GHAAGTFDS	GP_Gibbs	-0.39	5 of 6
GFDVNSYGIS	VIYSDGRRTAYSDSVK	GRAAGTFDS	Ctrl	1.07	6 of 6
GFTLNSYGIS	VIYSDGRRTFYTDAVK	GSTAGTPDS	Ctrl	no signal	0 of 6
GFELNDYGIS	VIYSDGRRTCYIDSVK	GRAAGTFDS	GP_HC	1.27	4 of 6
GFTLNDYGIS	VIYSDGRRTFYGDKVK	ARALLTFES	Rand	no signal	0 of 6
GFDLNEYGIS	VIYADGMRTAYADKVK	GNEAGTFDV	En_Gen	-0.59	6 of 6
GFSLDEYGIS	VIYADGRRTFYADDVK	GNVAGTFDV	En_HC	-0.93	6 of 6
GFTLNSYGIS	VIYSDGMRTFYADSVK	GRVAGTFDS	GPLM_Gen	0.05	6 of 6
GFDLDEYGIS	VIYADGMRTAYQQKVK	GQETDTNVT	En_Gibbs	no signal	0 of 6
GFDLNEYGIS	VIYADGRRTAYADSVK	GEVAGTFDM	En_Gen	-0.36	6 of 6
GFDLDEYGIS	VIYADGKRTFYADSVK	GEAAGTFDV	En_HC	-0.13	6 of 6
GFDLEDYGIS	VIYADGSRTAYADSVK	GNVAGTFDS	En_HC	-0.16	6 of 6
GFDLNEYGIS	VIYADGRRTYYQDSVK	GEIAGTFDQ	En_HC	-0.56	6 of 6
GFTLNSYGIS	VIYSDGRRTFYIDSVK	GGEAGTFDT	GP_Gibbs	0.25	6 of 6
GFNLDEFGIS	VIYADGRRRAYSDEVK	GQHGWFLLQ	En_Gibbs	no signal	0 of 6
GFTLNEYGIS	VIYSDGRRTFYGDSVK	GQIAGTFDS	Ctrl	-0.07	6 of 6
GFTLNSYGIS	VIYSDGRRVFYSNSVK	GRAAGTFDS	Ctrl	1.60	3 of 6
GFELNSYGIS	VIYSDGRRTFYGDSVK	GQAAGTFDN	GP_Gibbs	2.14	3 of 6
GFTLNQYGIS	VIYSDGWRTFYSDSVK	GRAAGTFTS	GP_HC	1.90	1 of 6
GFSLNSYGIS	VIYSDGRRTFYGDQVK	GRTAGTFDK	GP_Gibbs	1.17	6 of 6
GFSLNEYGIS	VIYADGRRTFYGDSVK	GSAAGTFDS	GP_HC	-0.54	6 of 6
GFDLDEYGIS	VIYADGMRTAYVDSVK	GNQAGTFDI	En_Gen	-0.41	6 of 6
GFDIQDYGIS	VIYADGSRTAYTNSVK	GEQGASYDL	En_Gibbs	no signal	0 of 6
GFDLNEYGIS	VIYADGQRTAYADSVK	GNQAGTFDQ	En_Gen	-0.31	6 of 6
PFTLESYGIS	VIYADGRRTFYGDSVK	GRAAGTFKS	GP_HC	no signal	0 of 6
GFDLNSYGIS	VIYSDGRRTFYGDGVK	GREAGTFDS	GP_Gen	0.00	6 of 6
GFQLEEMGIS	VIYADGVRTAYSSKVK	GGNGDKFDV	En_Gibbs	2.12	1 of 6
KFTLNDYGIS	VIYSDGRRTFYTDSVK	GRCAGTFDS	GP_HC	no signal	0 of 6
GFELNSYGIS	VIYSDGRRTFYADDVK	GVNAGTFDS	GP_Gibbs	0.84	6 of 6
GADLNEYGIS	VIYADGDRKAFQDDVK	GTNGGDFDE	En_Gibbs	no signal	0 of 6
GFDLDEYGIS	VIYADGMRTAYADSVK	GENGGTFDV	En_Gen	0.15	6 of 6
GFKLNEYGIS	VIYADGQRKSYADSFK	GRWTGQVIV	En_Gibbs	0.99	6 of 6
GFDLDEYGIS	VIYADGVRTAYADSVK	GNNAGTFDL	En_Gen	-0.38	6 of 6
GETLNSYGIS	VIYSDGIRTFYGDSVK	GENAGTFDS	Ctrl	1.79	5 of 6
GFDLNEYGIS	VIYADGVRTAYSDSVK	GQVAGTFDL	En_Gen	0.02	6 of 6
GFTLNSYGIS	VIYSDGRRTYYGDSVK	TNAAGTFDS	Ctrl	no signal	0 of 6
GFDLNEYGIS	VIYADGRRTFYSDSVK	GEVAGTFVV	En_HC	-0.06	6 of 6
GFTLNSYGIS	VIYADGRRTFYGDNVK	GEAAGTFDK	GP_Gibbs	-0.19	6 of 6
GFDLNEYGIS	VIYADGMRTAYADNVK	GETAGTFDQ	En_Gen	0.15	6 of 6
GFSLNSYGIS	VIYSDGRRTFYSDMVK	GEAAGTFDS	GPLM_Gen	1.49	6 of 6
GFTLNKYGIS	VIYSDGRRTFYLDSVK	GRAAGTFDS	Ctrl	1.09	6 of 6
GFALNEYGIS	VIYADGKRQVYANKVK	GNQTGTLDI	En_Gibbs	2.58	1 of 6
GFDLNEFGVS	VIYADGSRASYADKVK	GLNFGQLIV	En_Gibbs	no signal	0 of 6
GFDLNEYGIS	VIYADGMRTAYADSVK	GQTAGTFDV	En_Gen	-0.62	6 of 6

Excerpt, the first 13 entries:

{"CDR-H1": "GFTLMSYGIN", "CDR-H2": "VIYCDGRRTFYGDSVK", "CDR-H3": "LRAAGTALS", "group": "Rand", "log10 Kd (nM), mean": "no signal", "seen in": "0 of 6"}
{"CDR-H1": "GFTLNSYGIS", "CDR-H2": "VIYSDGIRTFYGDSVK", "CDR-H3": "GQHAGTFDS", "group": "Ctrl", "log10 Kd (nM), mean": "1.21", "seen in": "2 of 6"}
{"CDR-H1": "GFTLNSYGIS", "CDR-H2": "VIYSDGRRTFYKDSVK", "CDR-H3": "GRAAGTKDS", "group": "Ctrl", "log10 Kd (nM), mean": "no signal", "seen in": "0 of 6"}
{"CDR-H1": "GFSLNSYGIS", "CDR-H2": "VIYSDGRRTFYGDSVK", "CDR-H3": "GMEAGTFDK", "group": "GP_Gibbs", "log10 Kd (nM), mean": "0.07", "seen in": "6 of 6"}
{"CDR-H1": "GFDLNEYGIS", "CDR-H2": "VIYADGMRTTYTDSVK", "CDR-H3": "GNEAGTFDS", "group": "En_HC", "log10 Kd (nM), mean": "0.14", "seen in": "6 of 6"}
{"CDR-H1": "GFTLLDYGIS", "CDR-H2": "VIYSDGRRTFYEDSVK", "CDR-H3": "GRAAGTFDS", "group": "Ctrl", "log10 Kd (nM), mean": "no signal", "seen in": "0 of 6"}
{"CDR-H1": "GFNLNEYGIS", "CDR-H2": "VIYSDGRRTFYGDSVK", "CDR-H3": "GRAAGAFDG", "group": "Ctrl", "log10 Kd (nM), mean": "no signal", "seen in": "0 of 6"}
{"CDR-H1": "GFDIDEYGIS", "CDR-H2": "VIYADGMRTFYADSVK", "CDR-H3": "GEAAGTFDA", "group": "En_HC", "log10 Kd (nM), mean": "-0.25", "seen in": "6 of 6"}
{"CDR-H1": "GFNLDEYGIS", "CDR-H2": "VIYADGMRTFYSDSVK", "CDR-H3": "GEAAGTFDV", "group": "En_HC", "log10 Kd (nM), mean": "-0.38", "seen in": "6 of 6"}
{"CDR-H1": "GFTLNQYGIS", "CDR-H2": "VIYSDGRRTFYADSVK", "CDR-H3": "GRAAGTFDT", "group": "GP_HC", "log10 Kd (nM), mean": "-0.04", "seen in": "6 of 6"}
{"CDR-H1": "GFTLNDYGIS", "CDR-H2": "VIYSDGRRTMYGDSVK", "CDR-H3": "GRAAGTFTS", "group": "GP_HC", "log10 Kd (nM), mean": "no signal", "seen in": "0 of 6"}
{"CDR-H1": "GFDLNEYGIS", "CDR-H2": "VIYADGLRTAYSDSVK", "CDR-H3": "GENAGTFDV", "group": "En_Gen", "log10 Kd (nM), mean": "0.25", "seen in": "6 of 6"}
{"CDR-H1": "GFTINSYGIS", "CDR-H2": "VIYSDGRRTFYGDSVK", "CDR-H3": "GYAAGTWDS", "group": "Ctrl", "log10 Kd (nM), mean": "no signal", "seen in": "0 of 6"}

A sequence measured in both rounds can read differently, since the two assays cover different ranges.
Empty control strains, which show no peptide, gave a signal in 1% of pairings with all heavy chain designs; the median was 2.08 and 95% of these signals were weaker than 0.84. No background was subtracted.
The authors averaged sequences with at least three values out of six and counted those with two or fewer as poor binders.

The measurements come from Li et al. 2023 (doi:10.1038/s41467-023-39022-2) through the FLAb antibody collection.